According to patent publication US7629351B2, “N-((1R,2S,5R)-5-(tert-butylamino)-2-((S)-2-oxo-3-(6-(trifluoromethyl)quinazolin-4-ylamino) pyrrolidin-1-yl)cyclohexyl)acetamide and other modulators of chemokine receptor activity, crystalline forms and process” (Bristol-Myers Squibb Company, priority 2006, dated 2009):
Read-outs that look alike come from different tables or passages of the source.

Amino acid sequences for entries named in this document (tags omitted). A change or cut given only in a name is not applied to a line headed by its entry.
UniProt P41597: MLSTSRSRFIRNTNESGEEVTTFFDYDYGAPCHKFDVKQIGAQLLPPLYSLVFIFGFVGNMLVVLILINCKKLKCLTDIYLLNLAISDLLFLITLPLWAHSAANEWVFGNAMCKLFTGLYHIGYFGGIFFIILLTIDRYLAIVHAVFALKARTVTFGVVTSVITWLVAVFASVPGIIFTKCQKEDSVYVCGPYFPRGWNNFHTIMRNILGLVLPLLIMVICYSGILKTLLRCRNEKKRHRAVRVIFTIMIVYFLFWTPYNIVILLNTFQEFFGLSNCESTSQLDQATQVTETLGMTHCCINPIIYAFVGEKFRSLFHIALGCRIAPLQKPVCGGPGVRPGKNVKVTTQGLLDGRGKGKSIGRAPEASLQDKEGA

Tests used:
[1] = Intradermal MCP-1 challenge model in cynomolgus monkey; assay type: in vivo; conditions: both sexes, cynomolgus monkey, plasma, 18 hours post dosing, read-out: Free plasma concentration
Protocol: (§1) Intradermal injection of MCP-1 results in the infiltration of mononuclear cells to the injection site. This model was initially developed to assess the inhibitory effect of CCR2 antagonists on the infiltration of mononuclear cells to the skin tissue injected with human MCP-1. The cellular infiltrate can be measured semi-quantitatively by histological scoring.
(§2) Immediately after dosing on Day 3, all animals received 2 intradermal injections of 10 μg (50 μL/injection ) of human MCP-1 (R & D Systems) and 2 intradermal injections of its DPBS control (50 μl/injection) at separate sites on the dorsal thorax. Dermal biopsies of all sites were obtained at approximately 18 hours following MCP-1 (or DPBS) challenge. Biopsies were processed for semi-quantitative histological evaluation. Representative sections of skin samples were examined by light microscopy; microscopic lesions and cellular infiltration were noted and their incidences were tabulated.
(§3) In addition to biopsy analysis, blood was collected and evaluated for complete blood counts and cell differentials. Also evaluated were plasma samples for compound (and metabolite) concentrations, and serum samples for systemic MCP-1 levels.

[2] = system: mononuclear cell recruitment to the skin; assay: as above; assay type: in vivo
Protocol: as §1, §2, §3

[3] = system: monocyte/macrophage infiltration; assay: 48-hour TG peritonitis model in hCCR2 KI mouse; conditions: for inhibition of monocyte/macrophage infiltration: 48 h post TG; for % inhibition of monocyte/macrophage infiltration: 48 hour
CCR2 = CCR2 (Homo sapiens, UniProt P41597); assay: In vivo receptor occupancy in blood of hCCR2 KI mice, 48-hour TG peritonitis model (Gaddum equation)
[4] = 5 mg/kg oral once daily for three days
[5] = 10 mg/kg oral once daily for three days
[6] = 20 mg/kg oral once daily for three days

Compound: CC(=O)N[C@@H]1C[C@H](NC(C)(C)C)CC[C@@H]1N1CC[C@H](Nc2ncnc3ccc(C(F)(F)F)cc23)C1=O [Example 1, N-((1R,2S,5R)-5-(tert-butylamino)-2-((S)-2-oxo-3-(6-(trifluoromethyl)quinazolin-4-ylamino)pyrrolidin-1-yl)cyclohexyl)acetamide]
- concentration at 18 h [1, 4]: 99 nM
- concentration at 18 h [1, 5]: 248 nM
- concentration at 18 h [1, 6]: 512 nM
- inhibition of dermal mononuclear cell infiltration [2, 4]: 75%
- inhibition of dermal mononuclear cell infiltration [2, 5]: 95%
- inhibition of dermal mononuclear cell infiltration [2, 6]: 95%
- infiltration of other cell types such as eosinophils and neutrophils ([2]; MCP-1 challenge): blocked
- inhibition of monocyte/macrophage infiltration ([3]; 1 mg/kg BID oral): 24%
- % inhibition of monocyte/macrophage infiltration ([3]; 1 mg/kg BID oral): 24%
- inhibition of monocyte/macrophage infiltration ([3]; 25 mg/kg BID oral): 74%
- % inhibition of monocyte/macrophage infiltration ([3]; 25 mg/kg BID oral): 74%
- inhibition of monocyte/macrophage infiltration ([3]; 100 mg/kg BID oral): 78%
- % inhibition of monocyte/macrophage infiltration ([3]; 100 mg/kg BID oral): 78%
- Concentration of Mouse MCP-1 in plasma (CCR2; 1 mg/kg BID oral): 0.005 nM
- Concentration of free Example 1 in plasma (CCR2; 1 mg/kg BID oral): 1.4 nM
- Concentration of Mouse MCP-1 in plasma (CCR2; 25 mg/kg BID oral): 0.017 nM
- Concentration of free Example 1 in plasma (CCR2; 25 mg/kg BID oral): 14 nM
- Concentration of Mouse MCP-1 in plasma (CCR2; 100 mg/kg BID oral): 0.015 nM
- Concentration of free Example 1 in plasma (CCR2; 100 mg/kg BID oral): 53 nM
